The target in this assay is Orexin receptor type 2 (Homo sapiens, UniProt O43614). The assay is described as follows: Displacement of (2S)-N-(2-pyrrol-1-ylphenyl)-1-[2-[1-(tritritiomethyl)benzimidazol-2-yl]sulfanylacetyl]pyrrolidine-2-carboxamide from human OX2 receptor expressed on CHO cell membrane measured after 3 hrs by TopCount method. Format: cell membranes.

Sequences of proteins named here, by UniProt entry; tags and fusion partners are left off.
UniProt O43614, whole entry: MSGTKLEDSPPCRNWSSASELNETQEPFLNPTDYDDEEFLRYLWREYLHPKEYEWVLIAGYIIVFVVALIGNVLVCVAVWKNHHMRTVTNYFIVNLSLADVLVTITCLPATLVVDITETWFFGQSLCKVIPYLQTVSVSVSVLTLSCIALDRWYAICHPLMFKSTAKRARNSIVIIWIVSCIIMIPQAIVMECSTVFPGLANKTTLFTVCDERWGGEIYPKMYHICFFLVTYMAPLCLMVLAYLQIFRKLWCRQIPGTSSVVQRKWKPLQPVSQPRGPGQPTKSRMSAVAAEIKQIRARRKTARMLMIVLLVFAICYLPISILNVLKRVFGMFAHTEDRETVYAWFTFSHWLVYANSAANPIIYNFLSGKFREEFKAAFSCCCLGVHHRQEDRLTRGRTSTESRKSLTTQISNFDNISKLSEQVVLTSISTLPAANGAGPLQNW

pKi: −log10 of the molar value.

In ChEMBL document CHEMBL3867477 (Bioorg Med Chem Lett, 2016) one finds Ki data, which are given here for one compound.

The compound `COc1ccc(C[C@H]2c3cc(OC)c(OC)cc3CCN2[C@@H](C(=O)NC(C)C)c2ccccc2)cc1OC` had a pKi of 6.38.

For orientation: pKi means the negative decadic logarithm of the Ki, by convention in mol/L. High values mean a low Ki, low ones a high Ki.
